Here are results for one substance from patent EP3417074B1, “ANALYTICAL METHODS AND ARRAYS FOR USE IN THE SAME” (SenzaGen AB, priority 2016, dated 2017).

For one data set, the system named is human skin. The settings on record: cited from earlier work.
For another data set, the system named is MUTZ-3 cells. Description: GARD binary classification (SVM on GARD prediction signature, 200 transcripts). The conditions noted are these: Table 8; average SVM decision value derived from triplicates.

On to 1-butanol, for which, in the data set on human skin, the HP is 6 and the Human potency was 6. Also, the “SVM DV” value in the data set with MUTZ-3 cells is -2,07.
